Experimental data as given in patent US20050175976A1, “Meiosis activating sterol augments implantation rate” (priority 1999, published 2005).
Marks after values point to notes of the source that are not given here.

Tested on: mouse cumulus enclosed oocytes
Test: Resumption of meiosis (GVBD) of mouse oocytes cultured in vitro with FSH and/or EGF
Format: cell-based
Details: FSH 10 IU/l, 22-24 h, HX-medium
Method: Immature female mice (B6D2-F1 strain C57B1/2J) were kept under controlled light and temperature conditions with free access to food and water. Ovarian stimulation was performed when the mice weighed 10-16 grams and consisted of an intra-peritoneal injection of Gonadoplex (Leo, Copenhagen, Denmark) containing (7.5 U/mouse). The animals were killed by cervical dislocation 44-48 h later. The media used for the culture of oocytes consisted of α-Minimum Essential Medium (α-MEM), with Earles Balanced Salt Solution (EBSS), 4 mM hypoxantine (HX), 3 mg/ml Bovine Serum Albumin, 0.23 mM pyruvate, 2 mM glutamine, 100 IU/ml penicillin and […] streptomycin. The ovaries were recovered and placed in HX-medium where an initial cleaning and removal of connective tissue was performed. Oocytes were isolated from the ovaries by puncturing individual follicles using 25 gauge needles. Isolation of oocytes were performed in HX-medium to prevent resumption of meiosis until the tests were ready to be performed. The oocytes were then washed 3 times in control medium before the start of each experiment. […] By the end of the culture period, germinal […] breakdown (GVBD) was scored by examining the oocyte in an inverted microscope. The percentage of oocytes with GVBD per total number of oocytes (% GVBD) was calculated.

In the case of “FSH: follicle stimulating hormone, glycoprotein with follicle-stimulating activity”, the “% GVBD” value (162 oocytes) is reported as 45^b % and the “No. of GVBD” value (of 162 oocytes) is reported as 73.
